Experiment [1] concerns the target T1, Neuromedin-K receptor (Homo sapiens, UniProt P29371). The experiment is described as follows: Apparent binding affinity to human NK3 receptor expressed in HEK293 cells. It is filed as cell-based.
Experiment [2] deals with T1, Neuromedin-K receptor. The experiment can be described thus: Equilibrium binding affinity to human NK3 receptor expressed in HEK293 cells. It is filed as cell-based.
In experiment [3] the target is T2, Neuromedin-K receptor (Cavia porcellus, UniProt P30098). The experiment is described as follows: Antagonist activity at […] guinea pig NK3 receptor A1142.58T mutant expressed in HEK293 cells assessed as inhibition of [MePhe7]NKB-induced accumulation of [3H]inositol phosphate. It is filed as functional, cell-based. In a few lines:
(§1)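 HEK293 cells transiently transfected with NK3 receptor, labeled with myo-[³H]-inositol and assayed 48 h post-transfection in HBSS/HEPES pH 7.4 with 8 mM LiCl. Fixed antagonist concentrations were preincubated 20 min at 37 °C, then [MePhe⁷]NKB (0.1 nM–10 μM) was added for 45 min at 37 °C. [³H]IP was captured on yttrium silicate beads. Agonist EC50 shifts gave dose ratios for Schild regression. Six curves from three transfections.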

Sequences of proteins named here, by UniProt entry; tags and fusion partners are left off.
UniProt P29371, whole entry: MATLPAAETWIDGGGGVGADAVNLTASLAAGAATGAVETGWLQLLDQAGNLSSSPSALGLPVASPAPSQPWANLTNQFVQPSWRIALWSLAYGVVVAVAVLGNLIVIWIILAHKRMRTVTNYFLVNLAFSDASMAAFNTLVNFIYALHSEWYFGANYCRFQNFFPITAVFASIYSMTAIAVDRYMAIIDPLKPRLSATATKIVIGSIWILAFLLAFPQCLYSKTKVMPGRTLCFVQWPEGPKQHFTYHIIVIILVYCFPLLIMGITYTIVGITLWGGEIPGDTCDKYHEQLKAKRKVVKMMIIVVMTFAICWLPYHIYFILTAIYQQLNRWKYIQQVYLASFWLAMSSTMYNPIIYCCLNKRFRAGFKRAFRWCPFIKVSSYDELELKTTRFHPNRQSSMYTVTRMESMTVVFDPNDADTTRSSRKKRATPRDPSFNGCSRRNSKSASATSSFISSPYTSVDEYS
UniProt P30098, whole entry, looked up: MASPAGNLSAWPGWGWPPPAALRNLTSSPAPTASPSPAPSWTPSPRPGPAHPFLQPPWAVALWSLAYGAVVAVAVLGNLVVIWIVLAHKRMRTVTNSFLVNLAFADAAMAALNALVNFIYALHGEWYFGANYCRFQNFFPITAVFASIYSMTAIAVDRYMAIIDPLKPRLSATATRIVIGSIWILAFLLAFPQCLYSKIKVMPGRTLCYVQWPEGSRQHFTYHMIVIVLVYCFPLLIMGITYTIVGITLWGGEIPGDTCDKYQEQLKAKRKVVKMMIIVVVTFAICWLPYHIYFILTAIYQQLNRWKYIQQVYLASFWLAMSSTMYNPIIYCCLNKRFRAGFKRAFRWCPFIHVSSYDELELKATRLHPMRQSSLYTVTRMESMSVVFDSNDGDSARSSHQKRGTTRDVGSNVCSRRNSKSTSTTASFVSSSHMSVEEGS

Experiment [4] has as its target T2, Neuromedin-K receptor. The experiment can be described thus: Apparent binding affinity to guinea pig NK3 receptor expressed in HEK293 cells. It is filed as cell-based.
Experiment [5] addresses T2, Neuromedin-K receptor. The experiment can be described thus: Equilibrium binding affinity to guinea pig NK3 receptor expressed in HEK293 cells. It is filed as cell-based.
The target of experiment [6] is T1, Neuromedin-K receptor. The experiment can be described thus: Antagonist activity at wild type human NK3 receptor expressed in HEK293 cells assessed as inhibition of [MePhe7]NKB-induced accumulation of [3H]inositol phosphate. It is filed as functional, cell-based. Particulars: read-out: pA2 (converted). In short, it runs like this:
as §1

We go through one compound from ChEMBL document CHEMBL1154606, “Identification of a critical residue in the transmembrane domain 2 of tachykinin neurokinin 3 receptor affecting the dissociation kinetics and antagonism mode of osanetant (SR 142801) and piperidine-based structures” (J Med Chem, 2009).

SMILES strings stand for the structures.

As a reminder, the pA2 is the negative logarithm of the molar antagonist concentration that doubles the agonist concentration needed for the same response. Regarding `CC(=O)N(C)C1(c2ccccc2)CCN(CCC[C@]2(c3ccc(Cl)c(Cl)c3)CCCN(C(=O)c3ccccc3)C2)CC1` [OSANETANT], the Kd on Neuromedin-K receptor [1] turned out to be 0.22 nM; on Neuromedin-K receptor [2], 0.2 nM; at Neuromedin-K receptor [4], 0.08 nM; on Neuromedin-K receptor [5] it was 0.15 nM. Also, the pA2 on Neuromedin-K receptor [3] is listed as 8.5. The Kb on Neuromedin-K receptor [6] is 18.6 nM.
